The test has as its system cyp125, fadE28, kstD, hsaA, prpD. In words: qRT-PCR of cholesterol utilization genes of Mtb in cholesterol media. The following applies: 10 μM; cholesterol media pH 7; 4 hours. A general note: Quantitative PCR measures a nucleic acid by following its amplification.

Turning to `CCSc1ncc(CN2CCN(c3nc4ccccc4o3)CC2)cn1` [Compound C6, 2-(4-((2-(ethylthio)pyrimidin-5-yl)methyl)piperazin-1-yl)benzo[d]oxazole], the “expression of cyp125, fadE28, kstD, hsaA, and prpD” value was “significantly reduced”.

Source of the values: patent US20240300934A1, “COMPOUNDS FOR MODULATING MYCOBACTERIUM TUBERCULOSIS RESPONSE” (priority 2021, published 2024).
